{"source": "patent US20070178439A1", "about": "“Control of es cell self renewal and lineage specification, and medium therefor” (priority 2003, published 2007)", "test_system": "ES cells", "experiment": "ES cell self-renewal versus differentiation in serum-free N2B27 adherent culture with passaging", "assay_type": "cell-based, mouse", "conditions": "N2B27, in the presence of LIF", "method": "ES cells were maintained without feeder cells. For serum-free culture, ES cells were plated onto gelatin-coated plates in N2B27 medium (Ying and Smith, 2003) supplemented with 10 ng/ml LIF (Sigma) and 10 ng/ml BMP4 or 200 ng/ml GDF6 (R&D Systems). Cells were passaged every 2-4 days using either enzyme-free Cell Dissociation Buffer (Invitrogen) or 0.025% trypsin/1% chicken serum. Dissociated cells were harvested in N2B27 and pelleted. Supernatant was aspirated and the cell pellet resuspended in N2B27 and replated directly. For single cell cloning, a finely drawn Pasteur pipette pre-loaded with N2B27 was used to pick individual cells into 10 μl drops. Drops were then singly transferred to 96-well plates pre-loaded with 150 μl N2B27 per well with LIF or LIF plus BMP4. After 8 days, ES cell colonies were identified and passaged. To produce chimaeras, ES cells were injected into C57Bl/6 blastocysts. Germline transmission was tested by mating male chimaeras with C57Bl/6 females."}
{"molecule": "BMP2: BMP receptor ligand used in place of BMP4 with LIF (protein, UniProt P12643 283-396, looked up) Bone morphogenetic protein 2: QAKHKQRKRLKSSCKRHPLYVDFSDVGWNDWIVAPPGYHAFYCHGECPFPLADHLNSTNHAIVQTLVNSVNSKIPKACCVPTELSAISMLYLDENEKVVLKNYQDMVVEGCGCR", "values": [{"measurement": "ES cell self-renewal with TGF-β superfamily ligand or other factor in place of BMP4", "result": "enhanced self-renewal"}]}
